Among the data in ChEMBL document CHEMBL1781933, “Neurosteroid analogues. 16. A new explanation for the lack of anesthetic effects of δ(16)-alphaxalone and identification of a δ(17(20)) analogue with potent anesthetic activity” (J Med Chem, 2011) are EC50 values, retold here.

The subject of this test is Xenopus laevis. The test can be described thus: Anesthetic effect on Xenopus laevis tadpole assessed as loss of righting reflex. It counts as functional, organism-based. The gist of the method:
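Xenopus tadpoles were exposed to steroid at five or more concentrations, with 10 or more animals per concentration. Loss of righting or swimming reflex was scored. EC50 and Hill coefficient were fitted from the dose–response curves; mean ± SEM.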

pEC50: −log10 of the molar value.

Consider `C[C@]12CC[C@@H](O)C[C@@H]1CC[C@@H]1[C@@H]2C(=O)C[C@]2(C)/C(=C\C#N)CC[C@@H]12`, for which the negative logarithm of the EC50 (pEC50) (usually the negative decadic logarithm of the EC50, by convention in mol/L) was 5.84.
